# From ChEMBL document CHEMBL1122156, “A comparison of the inhibitory action of 5-(substituted-benzyl)-2,4-diaminopyrimidines on dihydrofolate reductase from chicken liver with that from bovine liver” (J Med Chem, 1982)
# Target: T1, Dihydrofolate reductase (Gallus gallus) (UniProt P00378)
# T1 sequence (whole entry): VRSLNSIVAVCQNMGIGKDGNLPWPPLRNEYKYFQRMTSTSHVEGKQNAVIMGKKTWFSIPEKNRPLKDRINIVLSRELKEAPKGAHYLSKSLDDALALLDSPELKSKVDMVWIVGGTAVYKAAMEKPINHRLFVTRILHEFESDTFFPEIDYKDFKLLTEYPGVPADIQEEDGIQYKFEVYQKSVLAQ
# Test: Inhibitory activity against chicken Dihydrofolate reductase at pH 7.2.
row,Log 1/Ki app,SMILES
1,3.91,COCCOc1ccc(Cc2cnc(N)nc2N)cc1OCCOC
2,4.27,NC(=O)COc1cccc(Cc2cnc(N)nc2N)c1
3,4.71,CCCCCCOc1ccc(Cc2cnc(N)nc2N)cc1
4,4.26,COCCOc1ccc(Cc2cnc(N)nc2N)cc1

# Target: T1, Dihydrofolate reductase (Gallus gallus)
row,Log 1/Ki app,SMILES
1,3.87,Nc1ncc(Cc2cccc(O)c2)c(N)n1
2,4.34,CC(=O)Nc1ccc(Cc2cnc(N)nc2N)cc1[N+](=O)[O-]
3,5.03,Nc1ncc(Cc2cccc(Br)c2)c(N)n1
4,4.67,CCCCOc1ccc(Cc2cnc(N)nc2N)cc1
5,4.31,Nc1ncc(Cc2cccc(CO)c2)c(N)n1
6,4.83,Nc1ncc(Cc2ccc(Cl)cc2)c(N)n1
7,3.59,Nc1ncc(Cc2ccc(O)c(O)c2)c(N)n1
8,3.23,Nc1ncc(Cc2cc(CO)cc(CO)c2)c(N)n1
9,4.37,COCc1cccc(Cc2cnc(N)nc2N)c1
10,4.33,CS(=O)(=O)Oc1cccc(Cc2cnc(N)nc2N)c1
11,4.56,Cc1ccc(Cc2cnc(N)nc2N)cc1
12,4.92,Nc1ncc(Cc2cccc(C(F)(F)F)c2)c(N)n1
13,4.79,Nc1ncc(Cc2ccc(Br)cc2)c(N)n1
14,3.73,Nc1ccc(Cc2cnc(N)nc2N)cc1
